Test results as given in ChEMBL document CHEMBL1132914, “4-[(8-Alkyl-8-azabicyclo[3.2.1]octyl-3-yl)-3-arylanilino]-N,N-diethylbenzamides: high affinity, selective ligands for the delta opioid receptor illustrate factors important to antagonist activity” (Bioorg Med Chem Lett, 2000).

Chains of the proteins cited; added tags and fusions are not shown.
UniProt P41144, whole entry: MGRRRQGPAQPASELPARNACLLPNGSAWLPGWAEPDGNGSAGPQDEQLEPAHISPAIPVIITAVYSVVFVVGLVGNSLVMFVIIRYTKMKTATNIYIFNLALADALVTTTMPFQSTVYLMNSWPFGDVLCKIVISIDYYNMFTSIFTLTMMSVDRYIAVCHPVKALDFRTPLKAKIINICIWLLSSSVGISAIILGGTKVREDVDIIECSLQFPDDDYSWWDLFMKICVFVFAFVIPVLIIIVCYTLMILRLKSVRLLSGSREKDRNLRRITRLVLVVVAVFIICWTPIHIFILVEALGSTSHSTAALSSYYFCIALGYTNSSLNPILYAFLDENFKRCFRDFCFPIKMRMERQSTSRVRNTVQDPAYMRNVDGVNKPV
UniProt P33533, whole entry: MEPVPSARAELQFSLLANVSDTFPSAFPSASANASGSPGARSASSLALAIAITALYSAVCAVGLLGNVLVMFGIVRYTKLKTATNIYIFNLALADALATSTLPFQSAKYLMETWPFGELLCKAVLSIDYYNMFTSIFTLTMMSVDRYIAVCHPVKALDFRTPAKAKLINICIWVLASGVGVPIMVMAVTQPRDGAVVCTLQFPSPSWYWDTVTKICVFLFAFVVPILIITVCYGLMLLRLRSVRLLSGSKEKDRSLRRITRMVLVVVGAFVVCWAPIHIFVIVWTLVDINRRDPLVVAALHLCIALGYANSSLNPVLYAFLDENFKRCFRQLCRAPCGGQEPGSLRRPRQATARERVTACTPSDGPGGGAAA
UniProt P33535, whole entry: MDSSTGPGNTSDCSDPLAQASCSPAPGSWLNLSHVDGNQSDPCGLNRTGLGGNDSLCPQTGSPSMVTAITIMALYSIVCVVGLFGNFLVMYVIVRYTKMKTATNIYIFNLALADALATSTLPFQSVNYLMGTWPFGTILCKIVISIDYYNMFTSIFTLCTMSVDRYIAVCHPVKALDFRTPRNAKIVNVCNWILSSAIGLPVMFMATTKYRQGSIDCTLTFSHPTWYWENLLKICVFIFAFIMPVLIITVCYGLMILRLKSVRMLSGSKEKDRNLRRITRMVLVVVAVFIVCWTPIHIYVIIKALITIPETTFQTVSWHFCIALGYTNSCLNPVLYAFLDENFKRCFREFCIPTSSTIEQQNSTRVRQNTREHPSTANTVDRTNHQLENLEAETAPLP

Legend:
[1] = molecular target: Kappa-type opioid receptor (Cavia porcellus, UniProt P41144); assay: Compound was evaluated for binding affinity towards Opioid receptor kappa 1 by displacement of [3H]U-69593 radioligand
[2] = molecular target: Delta-type opioid receptor (Rattus norvegicus, UniProt P33533); assay: Compound was evaluated for binding affinity towards Opioid receptor delta 1 by displacement of [3H]-DADLE radioligand
[3] = molecular target: Mu-type opioid receptor (Rattus norvegicus, UniProt P33535); assay: Compound was evaluated for binding affinity towards Opioid receptor mu 1 by displacement of [3H]-DAMGO radioligand

SMILES	Ki [1]	Ki [2]	Ki [3]
C/C=C\CN1C2CCC1CC(N(c1ccc(C(=O)N(CC)CC)cc1)c1cccc(OC)c1)C2 (centres undefined)	1170 nM	3.7 nM	> 3400 nM
C=CCN1CC[C@@H](N(c2ccccc2)c2ccc(C(=O)N(CC)CC)cc2)[C@@H](C)C1	1450 nM	5.85 nM	–
CCN(CC)C(=O)c1ccc(N(c2cccc(OC)c2)[C@H]2C[C@H]3CC[C@@H](C2)N3CC=C(C)C)cc1	788 nM	3.51 nM	1100 nM
C=CCN1[C@@H]2CC[C@H]1C[C@@H](N(c1ccc(C(=O)N(CC)CC)cc1)c1cccc(OC)c1)C2	1080 nM	3.28 nM	2550 nM
C=CCN1[C@@H]2CC[C@H]1C[C@@H](N(c1ccc(C(=O)N(CC)CC)cc1)c1cccc(O)c1)C2	73 nM	1.26 nM	686 nM
